Assay: Toxicity in mice
Conditions: 50 mg/kg intravenously daily for 7 days

Row | Structure (SMILES) | weight loss and adverse effects on well-being
1 | Fc1ccc(Nc2nc(N/N=C/c3ccc4c(c3)OCO4)nc(N3CCOCC3)n2)cc1 [Pac 2, 1,3-benzodioxole-5-carbaldehyde [4-[(4-fluorophenyl)amino]-6-(4-morpholinyl)-1,3,5-triazin-2-yl]hydrazine] | No weight loss or apparent adverse or distressing effects
2 | O=C(N/N=C\c1c(O)ccc2ccccc12)c1cccc2cc[nH]c12 [Pac 1, N′—[(Z)-(2-Hydroxy-1-naphthyl)methylene]-1H-indole-7-carbohydrazide] | No weight loss or apparent adverse or distressing effects
